Protein sequences, listed by entry. Tags and fused reporters are not part of them. Lines headed by an entry give the natural chain unless they say otherwise; changes in a name come on top.
UniProt P41144: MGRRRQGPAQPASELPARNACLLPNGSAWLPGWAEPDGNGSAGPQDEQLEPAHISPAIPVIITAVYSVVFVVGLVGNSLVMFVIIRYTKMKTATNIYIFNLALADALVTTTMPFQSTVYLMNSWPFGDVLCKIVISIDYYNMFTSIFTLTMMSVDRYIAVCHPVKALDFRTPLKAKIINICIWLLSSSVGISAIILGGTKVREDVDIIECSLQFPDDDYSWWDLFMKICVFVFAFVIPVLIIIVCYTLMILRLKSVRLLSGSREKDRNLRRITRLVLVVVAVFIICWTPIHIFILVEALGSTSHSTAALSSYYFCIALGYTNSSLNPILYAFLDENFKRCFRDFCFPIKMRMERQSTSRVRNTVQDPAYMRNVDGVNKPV

According to ChEMBL document CHEMBL1125142, “Highly selective kappa-opioid analgesics. 3. Synthesis and structure-activity relationships of novel N-[2-(1-pyrrolidinyl)-4- or -5-substituted-cyclohexyl]arylacetamide derivatives” (1990):

Columns and labels:
[1] = molecular target: Kappa-type opioid receptor (Cavia porcellus) (UniProt P41144); experiment: Dose required to produce 50 percent of maximum possible analgesic activity was evaluated by rat paw pressure test (iv)
[2] = molecular target: Kappa-type opioid receptor (Cavia porcellus) (UniProt P41144); experiment: In vitro binding selectivity for mu to kappa opioid receptors.

Row | Structure (SMILES) | Ratio [1] | Ratio [2]
1 | CO[C@H]1CC(N(C)C(=O)Cc2cccc3sccc23)[C@@H](N2CCCC2)C[C@H]1OC (some centres not stated) | 51 | 
2 | CN(C(=O)Cc1cccc2sccc12)[C@H]1CCCC[C@@H]1N1CCCC1 |  | 110
